Literature values, collected in patent US20110251126A1, “INTESTINAL TREATMENT” (priority 2008, published 2011).

By UniProt entry, the sequences of proteins in these tests, tags left out. Where a name states a change or a piece, a line headed by the entry shows the natural chain unless it says otherwise.
UniProt P50391: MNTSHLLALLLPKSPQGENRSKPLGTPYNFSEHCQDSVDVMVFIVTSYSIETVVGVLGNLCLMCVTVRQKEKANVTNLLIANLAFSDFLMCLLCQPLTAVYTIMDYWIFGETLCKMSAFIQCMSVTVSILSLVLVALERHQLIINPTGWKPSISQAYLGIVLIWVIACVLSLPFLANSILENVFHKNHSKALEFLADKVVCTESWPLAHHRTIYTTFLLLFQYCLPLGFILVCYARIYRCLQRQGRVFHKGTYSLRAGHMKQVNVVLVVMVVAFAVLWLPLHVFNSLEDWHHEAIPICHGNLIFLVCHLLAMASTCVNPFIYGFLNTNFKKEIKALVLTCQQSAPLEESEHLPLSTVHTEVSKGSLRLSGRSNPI

Target: Y4 receptors (Homo sapiens, UniProt P50391)
Conditions: Michel et al. 1998; cited from earlier work

Substance: Neuropeptide Y [NPY]
- affinity for Y4 receptors: nanomolar
